Experimental data as given in patent US20180271853A1, “Method of Use for Inhibitors of Epidermal Growth Factor Receptor Variant III” (METASTAT, INC., priority 2015, published 2018).

How the values were obtained:
[1] = tested on: tumors expressing EGFR-viii; settings: clinical studies evaluating reversible or covalent EGFR inhibitors in GBM; cited from earlier work
[2] = target: phosphoY1173-EGFRviii expressed in U87MG tumor cells (Homo sapiens, UniProt P00533, DELINS30-297G); experiment: Inhibition of phosphoY1173-EGFRviii in U87MG tumor cells engineered to express EGFR-viii (in-cell ELISA); settings: FIG. 1

activity against EGFR-viii [2]	SMILES	benefit for GBM in clinical studies [1]
–	COc1cc2ncnc(Nc3ccc(F)c(Cl)c3)c2cc1OCCCN1CCOCC1 [gefitinib]	failed to demonstrate significant benefit
weak activity	C=CC(=O)Nc1cccc(Oc2nc(Nc3ccc(N4CCN(C)CC4)cc3OC)ncc2Cl)c1 [WZ4002]	–
